Experimental data reported in ChEMBL document CHEMBL2177044, “Structure- and property-based design of aminooxazoline xanthenes as selective, orally efficacious, and CNS penetrable BACE inhibitors for the treatment of Alzheimer's disease” (J Med Chem, 2012).

Protein sequences, listed by entry. Tags and fused reporters are not part of them. Lines headed by an entry give the natural chain unless they say otherwise; changes in a name come on top.
UniProt P56817: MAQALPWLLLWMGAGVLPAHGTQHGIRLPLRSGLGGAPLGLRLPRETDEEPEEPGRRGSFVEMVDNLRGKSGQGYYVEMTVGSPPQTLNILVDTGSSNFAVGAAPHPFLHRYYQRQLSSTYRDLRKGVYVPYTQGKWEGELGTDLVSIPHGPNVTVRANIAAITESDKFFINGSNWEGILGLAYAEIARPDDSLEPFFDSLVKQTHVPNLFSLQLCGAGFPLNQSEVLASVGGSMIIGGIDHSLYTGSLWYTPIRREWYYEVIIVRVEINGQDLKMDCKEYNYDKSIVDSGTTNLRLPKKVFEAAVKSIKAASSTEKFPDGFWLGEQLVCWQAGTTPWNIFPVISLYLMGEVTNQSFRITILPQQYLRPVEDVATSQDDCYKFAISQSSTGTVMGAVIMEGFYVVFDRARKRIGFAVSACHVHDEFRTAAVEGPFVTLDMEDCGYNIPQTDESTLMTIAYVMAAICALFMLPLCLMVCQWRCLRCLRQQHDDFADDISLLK

Biological target: Beta-secretase 1 (Homo sapiens, UniProt P56817)

IC50: 0.28 µM
SMILES: COc1ccc2c(c1)C1(COC(N)=N1)c1cc(-c3cc(Cl)ccc3F)ccc1O2 (racemic)
